Experimental data: PMC5079539 (Organic & biomolecular chemistry, 2016)

System: cell line ET (luc-ubi-neo/ET), Huh7 human hepatoma cell line
Conditions: concentration decreasing cell viability by 50%, 72 hrs, CytoTox-ONE

IFNα-2b: Recombinant human interferon alpha-2b, positive control
CC50: > 10 µM
